# Experimental data published in patent US5763395A, “Stabilized lanthionine bacteriocin compositions” (Ambi Inc., priority 1995, dated 1998).
# Assay: Nisin stability in topical germicide formulations under stressed conditions (RPHPLC)
# Conditions: for Residual nisin concentration: 2 weeks at 40° C., nisin formulated at 25 μg/ml, label nisin = water control
# Source text: i) Analytical reverse phase high pressure liquid chromatography (RPHPLC). The analyte (nisin) in solution is passed through a column of hydrophic beads to which the nisin tends to bind. The solution flowing through the column is then made progressively more hydrophobic by increasing acetonitrile concentration until it causes the nisin to be released from the beads and eluted from the column. The emergence of the nisin from the column is detected by measuring the absorbance of light at 210 nm by the effluent.
# In order to expedite the execution of these experiments the formulations were subjected to "stressed" conditions, ie pH 6 and 40° C.; both intended to accelerate any degradation effects taking place. The stability of nisin in the formulations was evaluated by RPHPLC.
# Formulations were prepared with nisin at 25 μg/ml and titrated to pH 6. […]
substance,measurement,setting,value
glutathione (oxidized),Residual nisin concentration,T-MAZ 20 BATCH 348,7.6 µg/mL
same,Residual nisin concentration,T-MAZ 20 BATCH 357,14.1 µg/mL
same,"Stabilization of nisin from degradation by sulfur-containing compounds, in words","nisin 25 μg/ml, T-MAZ 20, propyleneglycol, 1-propanol, EDTA or citrate, pH 6, 40° C.",did not stabilize nisin from degradation
